Results reported in patent US4336253A, “Cephalosporin antibiotics” (Eli Lilly and Company, priority 1981, dated 1982).

Assay: physchem

In the case of `O=C(NO)c1cccnc1` [N-hydroxy-3-pyridinecarboxamide], the pKa (50% methyl alcohol, first titratable group) is reported as 2.6, the pKa (50% methyl alcohol, second titratable group) is reported as 9 and the pKa (66% dmf, first titratable group) is reported as about 2.5. The pKa (66% dmf, second titratable group) was 9.9, the pKa (water, first titratable group) was 3.09 and the pKa (water, second titratable group) was 8.29.
